Reference: patent US20240189318A1, “THERAPEUTIC REGIMENS OF AN INHIBITOR OF THE ENZYMATIC ACTIVITY OF BRG1 AND BRM” (FOGHORN THERAPEUTICS INC., priority 2021, published 2024)
Read-outs that look alike come from different tables or passages of the source.

By UniProt entry, the sequences of proteins in these tests, tags left out. Where a name states a change or a piece, a line headed by the entry shows the natural chain unless it says otherwise.
UniProt P20813: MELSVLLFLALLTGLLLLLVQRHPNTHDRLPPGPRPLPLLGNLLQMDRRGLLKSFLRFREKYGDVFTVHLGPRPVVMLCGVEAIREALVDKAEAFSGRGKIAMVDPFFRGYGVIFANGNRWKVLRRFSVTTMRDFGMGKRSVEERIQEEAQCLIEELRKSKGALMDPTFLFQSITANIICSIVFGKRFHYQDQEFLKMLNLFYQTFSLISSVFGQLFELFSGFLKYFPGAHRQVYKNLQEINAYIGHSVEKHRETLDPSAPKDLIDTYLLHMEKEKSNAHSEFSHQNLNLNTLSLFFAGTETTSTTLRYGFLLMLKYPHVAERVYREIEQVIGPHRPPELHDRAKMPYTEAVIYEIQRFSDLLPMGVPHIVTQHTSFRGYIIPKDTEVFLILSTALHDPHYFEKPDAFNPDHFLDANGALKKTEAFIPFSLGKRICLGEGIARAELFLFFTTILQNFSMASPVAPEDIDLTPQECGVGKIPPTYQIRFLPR
UniProt P51532, whole entry: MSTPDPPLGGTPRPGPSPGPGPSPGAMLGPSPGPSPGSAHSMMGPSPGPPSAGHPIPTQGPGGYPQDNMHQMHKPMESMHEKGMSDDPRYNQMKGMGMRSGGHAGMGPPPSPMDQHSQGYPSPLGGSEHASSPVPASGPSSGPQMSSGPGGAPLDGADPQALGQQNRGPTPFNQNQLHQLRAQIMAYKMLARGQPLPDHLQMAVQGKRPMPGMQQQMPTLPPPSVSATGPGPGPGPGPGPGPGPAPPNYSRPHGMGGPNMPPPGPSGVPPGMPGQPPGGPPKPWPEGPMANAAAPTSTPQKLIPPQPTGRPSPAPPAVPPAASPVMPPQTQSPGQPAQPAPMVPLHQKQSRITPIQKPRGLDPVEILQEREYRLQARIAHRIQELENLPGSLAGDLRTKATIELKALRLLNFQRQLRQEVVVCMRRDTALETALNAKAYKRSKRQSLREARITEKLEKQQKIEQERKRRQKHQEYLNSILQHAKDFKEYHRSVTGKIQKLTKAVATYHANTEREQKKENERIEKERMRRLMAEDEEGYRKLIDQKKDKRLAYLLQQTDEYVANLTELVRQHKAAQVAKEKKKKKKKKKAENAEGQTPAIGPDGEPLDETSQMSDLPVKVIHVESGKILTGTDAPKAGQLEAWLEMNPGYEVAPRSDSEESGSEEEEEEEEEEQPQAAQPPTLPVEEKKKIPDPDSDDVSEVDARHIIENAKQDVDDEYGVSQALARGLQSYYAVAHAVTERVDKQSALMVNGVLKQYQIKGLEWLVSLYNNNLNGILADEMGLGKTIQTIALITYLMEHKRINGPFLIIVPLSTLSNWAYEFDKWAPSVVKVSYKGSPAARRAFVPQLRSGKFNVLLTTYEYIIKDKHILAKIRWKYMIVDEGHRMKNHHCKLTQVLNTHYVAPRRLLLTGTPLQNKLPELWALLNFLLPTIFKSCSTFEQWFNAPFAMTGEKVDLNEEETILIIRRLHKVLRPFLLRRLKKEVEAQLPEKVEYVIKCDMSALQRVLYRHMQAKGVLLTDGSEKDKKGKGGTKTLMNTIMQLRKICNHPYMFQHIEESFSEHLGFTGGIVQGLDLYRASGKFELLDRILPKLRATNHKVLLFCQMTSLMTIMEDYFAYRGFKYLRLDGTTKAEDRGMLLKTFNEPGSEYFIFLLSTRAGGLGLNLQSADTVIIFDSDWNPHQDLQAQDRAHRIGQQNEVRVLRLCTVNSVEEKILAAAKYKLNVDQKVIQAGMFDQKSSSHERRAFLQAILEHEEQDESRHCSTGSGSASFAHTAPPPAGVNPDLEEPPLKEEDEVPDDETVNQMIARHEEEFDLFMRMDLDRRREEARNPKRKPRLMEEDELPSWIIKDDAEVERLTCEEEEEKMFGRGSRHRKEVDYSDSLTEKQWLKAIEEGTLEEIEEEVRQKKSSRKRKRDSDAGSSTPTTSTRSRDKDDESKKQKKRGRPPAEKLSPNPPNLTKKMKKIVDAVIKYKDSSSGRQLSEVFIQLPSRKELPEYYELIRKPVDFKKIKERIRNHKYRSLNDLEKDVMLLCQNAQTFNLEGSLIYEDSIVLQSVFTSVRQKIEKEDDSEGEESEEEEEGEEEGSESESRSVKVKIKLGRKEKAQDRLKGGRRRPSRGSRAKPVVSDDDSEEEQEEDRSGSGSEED
UniProt P08183, whole entry: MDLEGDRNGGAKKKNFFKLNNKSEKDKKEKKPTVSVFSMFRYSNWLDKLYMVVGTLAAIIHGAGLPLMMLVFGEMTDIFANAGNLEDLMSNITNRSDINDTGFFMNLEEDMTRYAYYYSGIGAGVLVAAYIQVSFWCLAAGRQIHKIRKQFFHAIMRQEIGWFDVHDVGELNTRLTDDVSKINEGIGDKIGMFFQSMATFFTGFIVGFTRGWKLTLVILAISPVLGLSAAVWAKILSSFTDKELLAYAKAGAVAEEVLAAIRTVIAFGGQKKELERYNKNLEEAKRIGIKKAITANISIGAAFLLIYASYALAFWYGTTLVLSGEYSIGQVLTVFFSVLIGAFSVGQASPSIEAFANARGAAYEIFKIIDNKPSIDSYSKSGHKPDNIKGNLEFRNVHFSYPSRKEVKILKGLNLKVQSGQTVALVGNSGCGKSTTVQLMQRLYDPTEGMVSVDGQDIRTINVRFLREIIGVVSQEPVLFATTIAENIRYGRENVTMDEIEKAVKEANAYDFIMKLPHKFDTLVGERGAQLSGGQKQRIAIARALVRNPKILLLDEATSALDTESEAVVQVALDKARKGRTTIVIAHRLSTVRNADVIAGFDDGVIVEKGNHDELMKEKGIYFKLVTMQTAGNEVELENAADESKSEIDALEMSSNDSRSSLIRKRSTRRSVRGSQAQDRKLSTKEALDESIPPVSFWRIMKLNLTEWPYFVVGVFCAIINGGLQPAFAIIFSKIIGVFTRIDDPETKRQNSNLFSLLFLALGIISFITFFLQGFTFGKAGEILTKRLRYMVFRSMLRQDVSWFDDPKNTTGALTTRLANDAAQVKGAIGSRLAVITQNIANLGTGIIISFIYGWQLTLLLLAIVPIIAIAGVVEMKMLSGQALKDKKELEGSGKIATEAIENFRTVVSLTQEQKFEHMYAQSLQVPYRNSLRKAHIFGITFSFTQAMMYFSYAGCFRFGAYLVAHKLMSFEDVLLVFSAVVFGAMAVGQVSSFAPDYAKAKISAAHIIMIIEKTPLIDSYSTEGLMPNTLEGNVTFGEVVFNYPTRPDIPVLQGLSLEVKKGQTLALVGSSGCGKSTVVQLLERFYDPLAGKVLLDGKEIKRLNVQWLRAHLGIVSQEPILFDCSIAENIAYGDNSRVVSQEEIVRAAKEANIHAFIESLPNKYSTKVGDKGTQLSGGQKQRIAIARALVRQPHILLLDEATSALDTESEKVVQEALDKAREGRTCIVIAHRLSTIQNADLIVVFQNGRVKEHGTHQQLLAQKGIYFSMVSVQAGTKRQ
UniProt Q9UNQ0: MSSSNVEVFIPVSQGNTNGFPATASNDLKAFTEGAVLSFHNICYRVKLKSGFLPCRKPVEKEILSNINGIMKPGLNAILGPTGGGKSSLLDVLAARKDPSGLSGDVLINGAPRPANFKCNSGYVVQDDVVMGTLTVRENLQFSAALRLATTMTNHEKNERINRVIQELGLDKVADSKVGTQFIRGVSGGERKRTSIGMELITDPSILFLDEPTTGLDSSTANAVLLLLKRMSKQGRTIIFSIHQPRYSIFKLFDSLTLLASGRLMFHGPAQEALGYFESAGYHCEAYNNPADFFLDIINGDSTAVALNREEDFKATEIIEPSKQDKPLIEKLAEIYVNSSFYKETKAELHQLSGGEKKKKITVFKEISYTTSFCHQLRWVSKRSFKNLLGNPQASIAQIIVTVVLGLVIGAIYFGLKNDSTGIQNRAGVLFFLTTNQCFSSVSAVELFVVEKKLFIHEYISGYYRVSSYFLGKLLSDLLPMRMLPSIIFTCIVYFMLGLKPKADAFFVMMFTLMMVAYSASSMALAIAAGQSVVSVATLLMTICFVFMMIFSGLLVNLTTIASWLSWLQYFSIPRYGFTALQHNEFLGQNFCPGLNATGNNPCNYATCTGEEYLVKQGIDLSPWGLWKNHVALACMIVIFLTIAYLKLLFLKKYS

Columns and labels:
CYP2B6 activity = experiment: CYP enzyme activity in cultured human hepatocytes, CYP2B6; type: in vitro ADME; conditions: 72 hours, mean ± SD of three donors
CYP3A activity = experiment: CYP enzyme activity in cultured human hepatocytes, CYP3A4; type: in vitro ADME; conditions: 72 hours, mean ± SD of three donors
CYP2C9 mRNA = conditions: 72 hours, mean ± SD of three donors
CYP2B6 = CYP2B6 (Homo sapiens, UniProt P20813); experiment: Depletion by recombinant CYP enzyme, CYP2B6; type: in vitro ADME; set-up: from tissue; host or cells: pooled human liver microsomes; conditions: recombinant 2B6; 1 μM
CYP3A4 mRNA = experiment: CYP mRNA level (qRT-PCR) in cultured human hepatocytes, CYP3A4; type: in vitro ADME; conditions: for mRNA Fold Change Relative to the Vehicle Control: 72 hours, mean ± SD of three donors; for mRNA Fold Change Relative to DMSO Control ± SD: 0.05 μM
CYP1A2 mRNA = experiment: CYP mRNA level (qRT-PCR) in cultured human hepatocytes, CYP1A2; conditions: for mRNA Fold Change Relative to the Vehicle Control: 72 hours, mean ± SD of three donors; for mRNA Fold Change Relative to DMSO Control ± SD: 0.05 μM
BRG1 = BRG1 (Homo sapiens, UniProt P51532); experiment: biochemical
CYP1A2 enzyme activity = experiment: CYP enzyme activity in cultured human hepatocytes, CYP1A2; type: in vitro ADME; conditions: 72 hours, mean ± SD of three donors
CYP2C8 mRNA = experiment: CYP mRNA level in cultured human hepatocytes, CYP2C8; type: in vitro ADME; conditions: 72 hours, mean ± SD of three donors
CYP2B6 mRNA = experiment: CYP mRNA level (qRT-PCR) in cultured human hepatocytes, CYP2B6; conditions: for mRNA Fold Change Relative to the Vehicle Control: 72 hours, mean ± SD of three donors; for mRNA Fold Change Relative to DMSO Control ± SD: 0.05 μM
[1] = Bidirectional transport in MDCK control cells (passive permeability); type: in vitro ADME; conditions: dog, read-out: ER (efflux ratio), in control cells; for efflux ratio at 1 μM: 1 μM compound of formula (I); for efflux ratio at 10 μM: 10 μM compound of formula (I); for efflux ratio at 50 μM: 50 μM compound of formula (I)
CYP2C19 mRNA = experiment: CYP mRNA level in cultured human hepatocytes, CYP2C19; type: in vitro ADME; conditions: 72 hours, mean ± SD of three donors
P-gp = target: T1, P-gp (Homo sapiens, UniProt P08183); experiment: Bidirectional transport in MDCK-II cells expressing P-gp; type: in vitro ADME
T1 construct: expressed in transfected cells; host or cells: MDCK-II

BCRP = target: T2, BCRP (Homo sapiens, UniProt Q9UNQ0); experiment: Bidirectional transport in MDCK-II cells expressing BCRP; type: in vitro ADME
T2 construct: expressed in transfected cells; host or cells: MDCK-II

COC[C@H](NC(=O)c1ccn(S(C)(=O)=O)c1)C(=O)Nc1nc(-c2cccc(N3C[C@@H](C)O[C@@H](C)C3)n2)cs1 [compound of formula (I), N-((S)-1-((4-(6-(cis-2,6-dimethylmorpholino)pyridin-2-yl)thiazol-2-yl)amino)-3-methoxy-1-oxopropan-2-yl)-1-(methylsulfonyl)-1H-pyrrole-3-carboxamide]
Enzyme Activity Fold Change Relative to the Vehicle Control (CYP2B6 activity; 0.3 nM): 1.12 ± 0.09 | Enzyme Activity Fold Change Relative to the Vehicle Control (CYP2B6 activity; 1 nM): 1.08 ± 0.06 | Enzyme Activity Fold Change Relative to the Vehicle Control (CYP2B6 activity; 3 nM): 1.17 ± 0.02 | Enzyme Activity Fold Change Relative to the Vehicle Control (CYP2B6 activity; 10 nM): 1.09 ± 0.15 | Enzyme Activity Fold Change Relative to the Vehicle Control (CYP2B6 activity; 30 nM): 0.94 ± 0.08 | Enzyme Activity Fold Change Relative to the Vehicle Control (CYP2B6 activity; 50 nM): 0.80 ± 0.15 | Enzyme Activity Fold Change Relative to the Vehicle Control (CYP3A activity; 1 nM): 0.86 ± 0.19 | Enzyme Activity Fold Change Relative to the Vehicle Control (CYP3A activity; 3 nM): 0.73 ± 0.18 | Enzyme Activity Fold Change Relative to the Vehicle Control (CYP3A activity; 10 nM): 0.68 ± 0.16 | Enzyme Activity Fold Change Relative to the Vehicle Control (CYP3A activity; 30 nM): 0.80 ± 0.28 | Enzyme Activity Fold Change Relative to the Vehicle Control (CYP3A activity; 50 nM): 0.90 ± 0.28 | mRNA Fold Change Relative to the Vehicle Control (CYP2C9 mRNA; 0.3 nM): 1.04 ± 0.22 | mRNA Fold Change Relative to the Vehicle Control (CYP2C9 mRNA; 1 nM): 1.03 ± 0.17 | mRNA Fold Change Relative to the Vehicle Control (CYP2C9 mRNA; 3 nM): 0.93 ± 0.36 | mRNA Fold Change Relative to the Vehicle Control (CYP2C9 mRNA; 10 nM): 0.42 ± 0.07 | mRNA Fold Change Relative to the Vehicle Control (CYP2C9 mRNA; 30 nM): 0.30 ± 0.05 | mRNA Fold Change Relative to the Vehicle Control (CYP2C9 mRNA; 50 nM): 0.20 ± 0.03 | % Remaining of Compound of Formula (I) (CYP2B6): 104% | mRNA Fold Change Relative to the Vehicle Control (CYP3A4 mRNA; 0.3 nM): 0.87 ± 0.10 | mRNA Fold Change Relative to the Vehicle Control (CYP3A4 mRNA; 1 nM): 0.35 ± 0.05 | mRNA Fold Change Relative to the Vehicle Control (CYP3A4 mRNA; 3 nM): 0.09 ± 0.05 | mRNA Fold Change Relative to the Vehicle Control (CYP3A4 mRNA; 10 nM): 0.03 ± 0.01 | mRNA Fold Change Relative to the Vehicle Control (CYP3A4 mRNA; 30 nM): 0.03 ± 0.00 | mRNA Fold Change Relative to DMSO Control ± SD (CYP3A4 mRNA; donor HC5-27, 72 hours): 0.00233 ± 0.00153 | mRNA Fold Change Relative to DMSO Control ± SD (CYP3A4 mRNA; donor HC10-23, 72 hours): 0.001 ± 0.000 | mRNA Fold Change Relative to DMSO Control ± SD (CYP3A4 mRNA; donor HC10-50, 72 hours): 0.006 ± 0.001 | mRNA Fold Change Relative to the Vehicle Control (CYP3A4 mRNA; 50 nM): 0.02 ± 0.00 | mRNA Fold Change Relative to the Vehicle Control (CYP1A2 mRNA; 0.3 nM): 1.12 ± 0.21 | mRNA Fold Change Relative to the Vehicle Control (CYP1A2 mRNA; 1 nM): 0.95 ± 0.09 | mRNA Fold Change Relative to the Vehicle Control (CYP1A2 mRNA; 3 nM): 0.68 ± 0.05 | mRNA Fold Change Relative to the Vehicle Control (CYP1A2 mRNA; 10 nM): 0.41 ± 0.08 | mRNA Fold Change Relative to the Vehicle Control (CYP1A2 mRNA; 30 nM): 0.26 ± 0.05 | mRNA Fold Change Relative to DMSO Control ± SD (CYP1A2 mRNA; donor HC5-27, 72 hours): 0.044 ± 0.0036 | mRNA Fold Change Relative to DMSO Control ± SD (CYP1A2 mRNA; donor HC10-23, 72 hours): 0.0703 ± 0.0064 | mRNA Fold Change Relative to DMSO Control ± SD (CYP1A2 mRNA; donor HC10-50, 72 hours): 0.0567 ± 0.0025 | mRNA Fold Change Relative to the Vehicle Control (CYP1A2 mRNA; 50 nM): 0.21 ± 0.03 | IC50 (BRG1): 6.5 nM | Enzyme Activity Fold Change Relative to the Vehicle Control (CYP1A2 enzyme activity; 0.3 nM): 0.87 ± 0.08 | Enzyme Activity Fold Change Relative to the Vehicle Control (CYP1A2 enzyme activity; 1 nM): 0.81 ± 0.07 | Enzyme Activity Fold Change Relative to the Vehicle Control (CYP1A2 enzyme activity; 3 nM): 0.92 ± 0.42 | Enzyme Activity Fold Change Relative to the Vehicle Control (CYP1A2 enzyme activity; 10 nM): 0.35 ± 0.16 | Enzyme Activity Fold Change Relative to the Vehicle Control (CYP1A2 enzyme activity; 30 nM): 0.24 ± 0.12 | Enzyme Activity Fold Change Relative to the Vehicle Control (CYP1A2 enzyme activity; 50 nM): 0.21 ± 0.04 | mRNA Fold Change Relative to the Vehicle Control (CYP2C8 mRNA; 1 nM): 0.92 ± 0.17 | mRNA Fold Change Relative to the Vehicle Control (CYP2C8 mRNA; 3 nM): 0.78 ± 0.19 | mRNA Fold Change Relative to the Vehicle Control (CYP2C8 mRNA; 30 nM): 0.29 ± 0.06 | mRNA Fold Change Relative to the Vehicle Control (CYP2C8 mRNA; 50 nM): 0.28 ± 0.13 | mRNA Fold Change Relative to the Vehicle Control (CYP2B6 mRNA; 0.3 nM): 1.78 ± 0.24 | mRNA Fold Change Relative to the Vehicle Control (CYP2B6 mRNA; 1 nM): 1.52 ± 0.47 | mRNA Fold Change Relative to the Vehicle Control (CYP2B6 mRNA; 3 nM): 1.46 ± 0.11 | mRNA Fold Change Relative to the Vehicle Control (CYP2B6 mRNA; 10 nM): 1.71 ± 0.40 | mRNA Fold Change Relative to the Vehicle Control (CYP2B6 mRNA; 30 nM): 1.20 ± 0.08 | mRNA Fold Change Relative to DMSO Control ± SD (CYP2B6 mRNA; donor HC5-27, 72 hours): 0.381 ± 0.029 | mRNA Fold Change Relative to DMSO Control ± SD (CYP2B6 mRNA; donor HC10-23, 72 hours): 1.29 ± 0.21 | mRNA Fold Change Relative to DMSO Control ± SD (CYP2B6 mRNA; donor HC10-50, 72 hours): 0.877 ± 0.127 | mRNA Fold Change Relative to the Vehicle Control (CYP2B6 mRNA; 50 nM): 0.97 ± 0.03 | efflux ratio at 1 μM ([1]; BCRP assay): 0.701 | efflux ratio at 10 μM ([1]; BCRP assay): 0.823 | efflux ratio at 50 μM ([1]; BCRP assay): 0.903 | efflux ratio at 1 μM ([1]; P-gp assay): 0.731 | efflux ratio at 10 μM ([1]; P-gp assay): 0.761 | efflux ratio at 50 μM ([1]; P-gp assay): 0.728 | mRNA Fold Change Relative to the Vehicle Control (CYP2C19 mRNA; 0.3 nM): 1.11 ± 0.03 | mRNA Fold Change Relative to the Vehicle Control (CYP2C19 mRNA; 1 nM): 1.14 ± 0.25 | mRNA Fold Change Relative to the Vehicle Control (CYP2C19 mRNA; 3 nM): 1.41 ± 0.52 | mRNA Fold Change Relative to the Vehicle Control (CYP2C19 mRNA; 30 nM): 1.10 ± 0.19 | mRNA Fold Change Relative to the Vehicle Control (CYP2C19 mRNA; 50 nM): 0.98 ± 0.32 | ER (efflux ratio), in transporter cells (P-gp; P-gp, 1 μM compound of formula (I)): 15.8 | efflux ratio at 10 μM (P-gp; human, MDCK-MDR1, P-gp, 10 μM compound of formula (I), read-out: ER (efflux ratio), in transporter cells): 11.5 | efflux ratio at 50 μM (P-gp; human, MDCK-MDR1, P-gp, 50 μM compound of formula (I), read-out: ER (efflux ratio), in transporter cells): 1.81 | efflux ratio at 1 μM (P-gp; human, MDCK-MDR1, P-gp, 1 μM compound of formula (I), read-out: ER (efflux ratio), in transporter cells): 16 | Papp A→B at 1 μM (P-gp; human, MDCK-MDR1, P-gp, 1 μM compound of formula (I), read-out: Papp A→B, in transporter cells): 1.71 ×10⁻⁶ cm/s | ER (efflux ratio), in transporter cells (BCRP; 1 μM compound of formula (I)): 3.95 | efflux ratio at 1 μM (BCRP; human, 1 μM compound of formula (I), read-out: ER (efflux ratio), in transporter cells): 4 | efflux ratio at 10 μM (BCRP; human, 10 μM compound of formula (I), read-out: ER (efflux ratio), in transporter cells): 1.53 | efflux ratio at 50 μM (BCRP; human, 50 μM compound of formula (I), read-out: ER (efflux ratio), in transporter cells): 0.829
